Data: patent publication US5910482A, “Treatment or prevention of preeclampsia, eclampsia with calcitonin gene related peptide, CGRP analog, progestational agent, nitric oxide source, and cyclooxygenase inhibitor” (priority 1996, dated 1999)

Key:
[1] = system: L-NAME-induced hypertension; experiment: Effect of CGRP, with or without progesterone, on L-NAME-induced hypertension during pregnancy and postpartum; assay type: in vivo, rat
Experimental: The effects of hypertensive agent L-NAME (50 mg/rat) on blood pressure were studied. […] L-NAME was infused as described in the FIG. 2.

[2] = system: pregnant rats; experiment: Delivery day and pup survival after L-NAME infusion to pregnant rats; effect of CGRP on fetal survival; assay type: in vivo; conditions: "preeclamptic" (L-NAME) animals treated with CGRP; FIG. 3; 5 rats per group
Excerpt: The data in Table 2 below show the delivery day and the pups survival following delivery of L-NAME infusion to pregnant rats.
Thus CGRP and CGRP/amylin/adrenomedullin or their receptor-based peptide or non-peptide agonists compounds administered to "preeclamptic" group of animals provides a highly significant advantage to survival of the fetus under these conditions.

With “calcitonin gene-related peptide (ACDTATCVTHRLAGLLSRSGGVVKNNFVPTNVGSKAF; Calcitonin gene-related peptide 1; UniProt P06881 83-119, looked up) [CGRP, 37-amino acid vasodilator neuropeptide, synthesized by Merrifield t-Boc solid-phase chemistry]” the “Effect on L-NAME-induced hypertension” value ([1]; CGRP alone, postpartum period, when circulating progesterone levels are minimal) was “ineffective”, the “Effect on L-NAME-induced hypertension” value ([1]; during pregnancy, when progesterone levels are elevated, L-NAME 50 mg/rat) was “completely reduced L-NAME-induced hypertension” and the Fetal survival rate [2] was “significantly improves the fetal survival rate”.
